# MITF act: increases MITF-driven TRPM1 promoter luciferase signal. 300,000 tested, 0.75% active. SK-MEL-5 TRPM1-promoter luciferase, 24 h; % of positive control, neutral wells = 0. activation, % at 12.5 µM. AID 588334;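 active = mean activation of at least 80% with every replicate also reaching 80%; inconclusive = mean reaches 80% but some replicate falls short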;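 note: 0% = neutral control wells and 100% = parthenolide positive control wells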
# MITF TRPM1 inh: MITF TRPM1 promoter inhibition in SK-MEL-5 cells | SK-MEL-5 TRPM1 promoter luciferase, 24 h | 330,000 tested, 0.83% active | inhibition, % at 12.5 µM;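 active = mean inhibition across replicates of 60% or more, whatever share of single replicates reaches that level; inconclusive = some that reach 60%, reason not given; inactive = mean inhibition across replicates below 60%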
# Wnt bcat act: activators of Wnt/beta-catenin signaling; Wnt/beta-catenin reporter cell assay, activator, plate reader; activation, % at 9.35 µM; 300,000 tested, 1.2% active; in the data active = activation above about 30%, passing the limit was not always enough; inconclusive = no clear call, values can overlap the other calls;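 note: 0% = neutral control wells and 100% = positive control wells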
# Yeast UUG start: alters start codon recognition fidelity in yeast; AID 602363; activity score, % at 18.7 µM; 350,000 tested, 0.13% active; S. cerevisiae UUG-firefly luciferase reporter, luminescence/redox ratio;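 active means replicate mean at a twofold rise or more, about +100% in these data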;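 further: firefly luciferase made from a UUG start codon reports start codon fidelity; reporter light over untreated wells divided by growth signal over untreated wells; some hits fall short of that in this replicate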
# PGC1a acetyl inh: PGC1a acetylation modulation, inhibitor mode | U2OS PGC1a acetylation, AlphaScreen anti-acetyl-lysine; with virally co-expressed GCN5 acetyltransferase | inhibition, % at 15.6 µM | 350,000 tested, 0.17% active;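 active = every replicate shows inhibition of at least 40%; inconclusive = mean inhibition at least 40% but some replicate below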;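 note: 0% = neutral control wells and 100% = positive control wells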
# miR-122 sensor: miR-122 inhibition in Huh7 cells; activation (reporter increase), % at 12.5 µM; 340,000 tested, 0.3% active; AID 602342; Huh7 miR-122 Renilla luciferase sensor, 48 h; neutral wells = 0, positive control = 100;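 active = mean replicate activation score at least 90 and every replicate individually at or above 90; inconclusive = only one of the two criteria met; inactive = neither criterion met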;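 note: higher luciferase means less miR-122 activity so hits act as miR-122 inhibitors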
# The depositor's hits bear a star; ? = inconclusive; / = no result; [ ] = remark or other dose. Shown are actives, neighbours in structure and some others; about 2.1% of the full set was active somewhere.
1: N#C/C(=C\c1ccccc1C(F)(F)F)C(=O)Nc1ccccc1
2: CCc1cccc(CC)c1NC(=O)/C(C#N)=C/c1ccccc1C(F)(F)F
3: O=C(C[C@H]1CC[C@@H]2[C@H](COC[C@@H](O)CN2Cc2ccc(F)cc2)O1)NCc1ccncn1
4: CN(C)S(=O)(=O)c1ccc2c(c1)/C(=C/c1cc3c([nH]1)CCCC3)C(=O)N2
5: COc1ccc2[nH]c(=O)c(CNc3ccccc3C)cc2c1
6: CCCNC(=O)N1C[C@H](O)COC[C@H]2O[C@H](CC(=O)N3CCCCC3)CC[C@@H]21
7: Cc1nc2nc(C)n(CCN3CCOCC3)c(=O)c2c(-c2cccc([N+](=O)[O-])c2)c1C(=O)CCCCCCCCCCN1CCC(c2ccccc2)(c2ccccc2)CC1
8: Cc1noc(C)c1S(=O)(=O)N(C)C[C@@H]1OCCCC[C@H](C)Oc2ccc(NC(=O)NC(C)C)cc2C(=O)N([C@H](C)CO)C[C@H]1C

entry no.	1	2	3	4	5	6	7	8
MITF act	67.8	-88.6	/	69.0	16.1	/	/	/
miR-122 sensor	/	-2.5	2.4[16.7 µM]	7.6	/	-1.1[16.7 µM]	-5.4	5.1[16.7 µM]
MITF TRPM1 inh	-70.7	88.9*	/	-77.5	-14.8	/	99.3*	/
Yeast UUG start	/	-9.3	-7.1	-20.5	/	6.5	/	12.2
PGC1a acetyl inh	/	-27.3	0.4	-3.9	-1.9	4.1	9.5	5.6
Wnt bcat act	/	/	/	34.5*	38.9*	/	-6.2	/

9: Cc1ccc(/C=C(\C#N)C(=O)NCC2CCCO2)o1 (stereo unspecified)
10: CCNC(=O)C[C@H]1CC[C@@H]2[C@H](COc3ccc(NC(=O)c4ccc(F)cc4)cc3C(=O)N2C)O1
11: COc1cc(/C=C/c2noc(-c3ccccc3O)n2)cc(OC)c1OC
12: COc1ccc(/C=C/c2noc(-c3ccccc3O)n2)cc1
13: COC(=O)c1c(NC(=O)c2ccc(C)cc2)csc1C
14: Cn1c(/C(C#N)=C(\O)c2cccc(F)c2)nc2ccccc21
15: N#C/C(=C(/O)c1cccc(F)c1)c1nc2ccccc2s1
16: CC(C)NC(=O)N[C@@H]1CC[C@H](CC(=O)O)O[C@H]1CO

entry no.	9	10	11	12	13	14	15	16
MITF act	10.0	/	?	97.6*	/	2.3	52.3	/
miR-122 sensor	22.3	2.2[16.7 µM]	3.2	-2.0	3.1	9.4	/	7.6[16.7 µM]
MITF TRPM1 inh	-8.2	/	-85.2	-91.9	-4.5	-5.3	-57.5	/
Yeast UUG start	9.4	-0.1	-14.3	-12.7	-12.8	-16.9	/	-9.2
PGC1a acetyl inh	-12.2	-5.8	13.2	/	7.5	7.7	/	13.6
Wnt bcat act	78.3*	/	20.3	/	35.7*	5.3	34.4*	/

17: CC(=Nc1ccc(C)cc1)c1sc2ccccc2c1O
18: COc1cc(C(=O)O/N=C2\C=CC(=O)C(C)=C2)cc(OC)c1OC
19: C[C@@H]1CN([C@@H](C)CO)C(=O)Cc2cc(NC(=O)Nc3ccccc3)ccc2O[C@H]1CN(C)C(=O)Nc1cccc2ccccc12
20: N#CCC(=O)N/N=C\c1ccc(OC/C=C/c2ccccc2)cc1
21: N#CCC(=O)N/N=C/c1ccc(OCc2ccccc2)cc1
22: O=C(Nc1ccc2c(c1)nc1n2CCSC1)c1ccccc1
23: COc1ccc(C(=O)Nc2ccc3c(c2)nc2n3CCSC2)cc1
24: COc1ccc(CCNC(=O)COC(=O)Cn2cnc3ccccc3c2=O)cc1

entry no.	17	18	19	20	21	22	23	24
MITF act	26.6	/	/	122.3*	29.3	21.6	/	9.8
miR-122 sensor	/	-1.6	-4.2[16.7 µM]	/	2.2	29.4	-3.9	186.4*
MITF TRPM1 inh	-31.8	28.5	/	-119.9	-27.3	-19.6	-41.3	-9.2
Yeast UUG start	/	-6.6	-3.2	-11.2	/	-43.0	-24.9	-13.2
PGC1a acetyl inh	4.9	-43.6	-5.4	/	2.8	2.4	0.1	2.0
Wnt bcat act	46.4*	61.3*	/	27.3	8.2	12.4	48.8*	-1.2

25: Oc1ccc(Cl)cc1CNc1nccs1
26: CNC[C@@H]1Oc2c(NC(=O)C3CCCCC3)cccc2C(=O)N([C@H](C)CO)C[C@@H]1C
27: Nn1c(SCc2ccccc2F)nnc1-c1ccccn1
28: Nn1c(SCc2ccc(F)cc2)nnc1-c1ccccn1
29: CN(C)C=NC(=O)c1cc(C(=O)c2ccccc2Cl)c[nH]1
30: CN(C)C=NC(=O)c1cc(C(=O)c2ccc(C(C)(C)C)cc2)c[nH]1
31: CCOC(=O)c1c(NC(=O)COc2ccccc2C#N)sc2c1CC(C)(C)NC2(C)C
32: CCOC(=O)c1c(NC(=O)COc2ccccc2OCC)sc2c1CC(C)(C)NC2(C)C
33: Cc1cnc(NC(=O)c2ccc3ncsc3c2)s1
34: COc1ccc2nc(NC(=O)c3ccc4ncsc4c3)sc2c1

entry no.	25	26	27	28	29	30	31	32	33	34
MITF act	/	/	/	/	-9.6	86.1*	-51.8	-83.8	47.4	?
miR-122 sensor	-0.6	-4.4[16.7 µM]	-4.9	1.6	/	/	-0.4	/	/	3.3
MITF TRPM1 inh	4.9	/	/	/	10.7	-84.5	52.7	84.4*	-44.7	-76.0
Yeast UUG start	-12.6	-19.8	-28.8	-22.9	/	/	1.9	-14.0	/	-1.0
PGC1a acetyl inh	-7.4	-3.3	-0.4	8.4	9.9	/	/	3.9	/	-6.1
Wnt bcat act	45.3*	/	41.0*	22.4	-0.9	14.6	-0.7	/	48.4*	/

# Entries of single compounds, quoted from the list. Order of values: MITF act, miR-122 sensor, MITF TRPM1 inh, Yeast UUG start, PGC1a acetyl inh, Wnt bcat act
# CN(C)C=NC(=O)c1cc(C(=O)c2ccc(C(C)(C)C)cc2)c[nH]1 reads 86.1*, /, -84.5, /, /, 14.6
# Nn1c(SCc2ccccc2F)nnc1-c1ccccn1 reads /, -4.9, /, -28.8, -0.4, 41.0*
# Oc1ccc(Cl)cc1CNc1nccs1 reads /, -0.6, 4.9, -12.6, -7.4, 45.3*
